{
  "source": "patent US20120208182A1",
  "about": "“GENETIC TEST FOR LIVER COPPER ACCUMULATION IN DOGS AND LOW COPPER PET DIET” (priority 2009, published 2012)",
  "assay": "Pharmacokinetic study of oral zinc gluconate, plasma zinc by atomic absorption spectrometry",
  "type": "in vivo, Labrador Retrievers",
  "protocol": "Two unrelated nine-year old, healthy Labrador Retrievers (1 female and 1 male) were used in a pharmacokinetic study. Food was withheld for a 12-hour period prior to oral administration of zinc, and during the initial 6-hour testing period. Water was freely available. Oral zinc gluconate was administered at a dose of 10 mg/kg in dog 1, and at a dose of 5 mg/kg in dog 2. Heparinized blood samples (4 ml) were collected from the jugular vein before dosing (time 0) and 15, 30, 45, 60, 90, 120 minutes, and 4, 8, 12 and 24 hours after application of the drug. Plasma was stored at\n−20° C. until analysis for zinc using atomic absorption spectrometry.\nPharmacokinetic parameters (WinNonlin 4.0.1. (Pharsight Corporation, 800 West El Camino Real, Mountain View, Calif., USA) and statistical analysis (SPSS 11.0 for windows, 2001, SPSS Inc., Chicago, Ill., USA) were calculated by use of commercially available software packages. Due to small group sizes a non-parametric statistical test was used for comparison between groups. A Mann-Whitney test was used to detect a difference between hepatic copper concentrations before and after treatment with diet and zinc-gluconate (group-1) at two control examinations (recheck-1 and recheck-2), and after treatment with diet and placebo (group-2) at both control examinations. […]\nPharmacokinetic parameters calculated from plasma zinc concentrations measured in two dogs after oral application of 10 mg/kg (dog 1) and 5 mg/kg (dog 2) elemental zinc were: […]",
  "data": [
    {"substance": "zinc gluconate", "values": [
      {"measurement": "Cl_F: clearance in relation to the bioavailability", "setting": "Dog 1, 10 mg/kg oral", "value": 0.1578464, "unit": "L/h/kg"},
      {"measurement": "Cmax: maximal clearance", "setting": "Dog 1, 10 mg/kg oral", "value": 2.66, "unit": "µg/mL"},
      {"measurement": "Cl_F: clearance in relation to the bioavailability", "setting": "Dog 2, 5 mg/kg oral", "value": 0.09618, "unit": "L/h/kg"},
      {"measurement": "Cmax: maximal clearance", "setting": "Dog 2, 5 mg/kg oral", "value": 1.755, "unit": "µg/mL"},
      {"measurement": "calculated half-life t½", "setting": "from both dogs", "value": 15.1, "unit": "h"}
    ]}
  ]
}
